Here are results for one substance from paper doi:10.1101/2022.06.01.494340.

This assay addresses EGFR-mTFP (UniProt P00533). The assay can be described thus: ratiometric fluorescence imaging of labelled ligand on live cells.

The substance EGF-Alexa647 (ligand) had an EGF-receptor occupancy at 20 ng/ml EGF-Alexa647 of 20%.
